Screens (PubChem)
Sampled rows, rich in hits. Any-hit rate of the full collection: about 0.43%.
HCMV NEC inh: inhibitors of HCMV UL50-UL53 interaction, biochemical, HTRF | HCMV UL50-UL53 nuclear egress complex (human cytomegalovirus) | normalized percent inhibition | inhibition, % (test concentration not listed) | 190,000 tested, 0.15% active; in the data active means inhibition above about 27%, passing the limit was not always enough
GIV Gai3 FP: inhibitors of GIV GBA-motif binding to rat Galpha-i3. actives 0.42% (n = 210,000). Galpha-i3/FITC-GIV peptide fluorescence polarization, 90 min; active compounds read low; scaled: aluminum fluoride 0%, vehicle 100%. AID 1224905. percent of control (FP), % (no concentration beside the values). P08753;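 active means replicate mean at 85% of control or lower, very high polarization wells dropped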;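 further: wells of about 15 µL received 100 nL stock; the first replicate is given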
GIV Gai FP conf: inhibitors of GIV peptide binding to Galpha-i3, confirmation, biochemical, fluorescence polarization, FITC-GIV peptide, rat Galphai3; AID 1259350, 2017; fluorescence polarization, mP at 100 µM; stronger effect = lower value; 580 tested, 38% active; shares compounds with GIV Gai3 FP;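 active means inhibition score of 15 or more, meaning 100 minus mean polarization as percent of control over three replicates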
GIV-Gai AS conf: inhibitors of GIV binding to Galpha-i3, confirmation, orthogonal assay for GIV-Galpha-i inhibitor project, biochemical, AlphaScreen, His-GIV, GST-Galphai3; shares compounds with GIV Gai3 FP; purified proteins, 90 min; stronger effect = lower value; AlphaScreen counts at 100 µM; AID 1259351, 2017; 580 tested, 39% active;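 active means inhibition score at or above a set limit, where the score is 100 minus the three-replicate mean percent of control signal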
* = called active by the depositor.

`CCCC(C(=O)O)N1C(=O)/C(=C/c2ccc(C)cc2)SC1=S` (stereo not drawn) gave HCMV NEC inh -16.
CCCCC(C(=O)O)N1C(=O)/C(=C/c2cccnc2)SC1=S (stereo not drawn) was read as HCMV NEC inh -45, GIV Gai3 FP 83*, GIV Gai FP conf 72 and GIV-Gai AS conf 35991.
For CC(=O)N1CCc2cc(Br)c(S(=O)(=O)NCCN3CCC(Cc4ccccc4)CC3)cc21 the results were GIV Gai3 FP 119.
`Cc1ccc(C)n1-c1nnc(N2CCCC(C(=O)O)C2)s1` (stereo not drawn) gave GIV Gai3 FP 87, GIV Gai FP conf 59 and GIV-Gai AS conf 7556*.
Screening Cc1cccc(NC(=O)C2CCCN(c3nnc(-n4c(C)ccc4C)s3)C2)c1C (stereo not drawn) returned HCMV NEC inh -10 and GIV Gai3 FP 103.
`CCC(C)(C)NS(=O)(=O)c1ccc(Cl)cc1F` gave HCMV NEC inh -19.
Screening O=S(=O)(Nc1ccc2nnc(-c3cccc(Br)c3)n2n1)c1ccc(Cl)cc1 returned HCMV NEC inh -36 and GIV Gai3 FP 105.
For CC(C)c1ccc(C2C(C#N)=C(N)N3C(=C2C#N)Sc2ccccc23)cc1 (stereo not drawn) the results were GIV Gai3 FP 79*, GIV Gai FP conf 75 and GIV-Gai AS conf 39185.
For CC1=C(C(=O)OC(C)C)C(c2ccc(C(C)C)cc2)C(C#N)=C(N)S1 (stereo not drawn) the results were HCMV NEC inh -8.
Cc1ccccc1OCC(=O)NCCc1csc(-c2ccccc2)n1 was read as HCMV NEC inh -23 and GIV Gai3 FP 94.
For COCc1cc(=O)n2c(n1)N(CC1CC1)CC2 the results were GIV Gai3 FP 103.
COc1cc(NC(=O)c2sc3nc4n(c(=O)c3c2C)CCCCC4)cc(OC)c1OC was read as HCMV NEC inh -8 and GIV Gai3 FP 104.
Screening COc1ccc(NC(=O)c2sc3nc4n(c(=O)c3c2C)CCC4)cc1Cl returned HCMV NEC inh 3, GIV Gai3 FP 83*, GIV Gai FP conf 80 and GIV-Gai AS conf 33472.
Screening Cc1nnc(COc2ccc3ccccc3c2Br)o1 returned HCMV NEC inh -56.
For COC(=O)CNC(=O)c1n[nH]c(=O)c2ccccc12 the results were HCMV NEC inh -31.
`CCOC(=O)c1cc(NC(=O)N(C(C)C)C2CCN(C)CC2)c(C)nc1C` gave HCMV NEC inh -9 and GIV Gai3 FP 94.
C=CCC(C)(NCCc1ccccc1)c1ccco1 (stereo not drawn) was read as HCMV NEC inh -16 and GIV Gai3 FP 105.
Screening CC(O)C(O)[C@H]1CNc2nc(N)[nH]c(=O)c2N1 (stereo partly drawn) returned HCMV NEC inh -53 and GIV Gai3 FP 103.
C[C@H](O)C(=O)C1=Nc2c(nc(N)[nH]c2=O)NC1 was read as HCMV NEC inh -88, GIV Gai3 FP 73*, GIV Gai FP conf 72 and GIV-Gai AS conf 29102*.
`Cc1cc2c(cc1C)N(C(=O)c1cccc([N+](=O)[O-])c1)C(C)(C)c1ssc(=S)c1-2` gave GIV Gai3 FP 111.

Arranged by molar mass (rising): part of the list above.
C[C@H](O)C(=O)C1=Nc2c(nc(N)[nH]c2=O)NC1 was read as HCMV NEC inh -88, GIV Gai3 FP 73*, GIV Gai FP conf 72 and GIV-Gai AS conf 29102*.
For COC(=O)CNC(=O)c1n[nH]c(=O)c2ccccc12 the results were HCMV NEC inh -31.
Screening Cc1cccc(NC(=O)C2CCCN(c3nnc(-n4c(C)ccc4C)s3)C2)c1C (stereo not drawn) returned HCMV NEC inh -10 and GIV Gai3 FP 103.

The listing continues:
O=C(NCCc1ccccc1)C1CCN(c2cnccn2)CC1 was read as HCMV NEC inh -19 and GIV Gai3 FP 102.
`O=C(NC1CCN(Cc2ccccc2)CC1)C1CCN(c2cnccn2)CC1` gave HCMV NEC inh -14, GIV Gai3 FP 67*, GIV Gai FP conf 62 and GIV-Gai AS conf 43938.
Screening CCOC(=O)c1cccc(NC(=O)c2cc3c(=O)[nH]c4ccccc4c3n2C)c1 returned HCMV NEC inh 2 and GIV Gai3 FP 99.
`Cc1noc(-c2ccccc2)c1NC(=O)NCC1COc2ccccc2O1` (stereo not drawn) gave HCMV NEC inh -37 and GIV Gai3 FP 104.
For Cc1cc2c3c(c(N)cc(S(=O)(=O)O)c3n1)C(=O)c1ccccc1-2 the results were GIV Gai3 FP 126.
Cc1cc2c3c(c(Br)cc(S(=O)(=O)O)c3n1)C(=O)c1ccccc1-2 was read as GIV Gai3 FP 83*, GIV Gai FP conf 25* and GIV-Gai AS conf 2617*.
